Like-named read-outs stand apart in the source and are kept apart here.
Key:
[1] = system: E. coli GW2100/pTJgfp (umuC'::gfp); assay: umuC'::gfp fusion fluorescence assay, 96 parallel cultures (Example 1); conditions: nutrient broth, FIG. 2
[2] = system: arg-3 marker in E. coli strain GW2100/pTJgfp; assay: revertant colony assay, mutation from arg-3 to Arg+, with KS test (Example 2); conditions: for Mean revertant colony numbers: 40 parallel cultures, 4 day plate incubation
[3] = system: E. coli GW2100/pTJgfp (umuC'-gfp fusion); conditions: for Mean fluorescence emission: 84 parallel cultures, 24 hours incubation

## N-methyl-N-nitro-N-nitrosoguanidine
[1]; MNNG 0.1 μg/ml
  fluorescence level compared with the 0 dose control: no significant increase
[1]; MNNG 1.5, 3.5 and 7 μg/ml, stationary and logarithmic phase cells
  fluorescence level compared with the 0 dose control: dose-dependent increase
[2]; 1.7 μl of MNNG, 24 parallel cultures, FIG. 9b
  mutagenic activity by shift in variation and arithmetic mean of revertant colony numbers: can be detected
[2]; MNNG 0.1 μg/ml
  K.S statistic, revertant colony numbers, mutagen versus the control: 1.789
  Mean revertant colony numbers: 8.05
[2]; MNNG 3.5 μg/ml
  K.S statistic, revertant colony numbers, mutagen versus the control: 3.130
  Mean revertant colony numbers: 24.9
[2]; MNNG 3.5 μg/ml, 40 cultures, FIG. 7
  response in mean revertant colony numbers compared to zero exposure controls: positive response
[3]; 1.7 μl of MNNG, 24 parallel cultures, FIG. 9a
  mutagenic activity by shift in variation and arithmetic mean of fluorescent emission: can be detected
[3]; MNNG 0.1 μg/ml
  K.S statistic, fluorescence emission, mutagen versus the control: 3.94
  Mean fluorescence emission: 10.82
[3]; MNNG 3.5 μg/ml
  K.S statistic, fluorescence emission, mutagen versus the control: 6.48
  Mean fluorescence emission: 19.39
[3]; MNNG 3.5 μg/ml, 84 replicate cultures, FIG. 11
  mutagenic activity by shift in distribution of fluorescent output per culture: clearly evident
